Biological target: 21480B
Assay: Octet

- Kd: 1.91 nM
B1: 15593 (PD-1) (receptor)
chain: LDSPDRPWNPPTFSPALLVVTEGDNATFTCSFSNTSESFVLNWYRMSPSNQTDKLAAFPEDRSQPGQDCRFRVTQLPNGRDFHMSVVRARRNDSGTYLCGAISLAPKAQIKESLRAELRVTERRAEVPTAHPSPSPRPAGQFQ

From patent US20230220081A1 (published 2023)
